Protein sequences, listed by entry. Tags and fused reporters are not part of them.
UniProt Q9Z2L0, whole entry: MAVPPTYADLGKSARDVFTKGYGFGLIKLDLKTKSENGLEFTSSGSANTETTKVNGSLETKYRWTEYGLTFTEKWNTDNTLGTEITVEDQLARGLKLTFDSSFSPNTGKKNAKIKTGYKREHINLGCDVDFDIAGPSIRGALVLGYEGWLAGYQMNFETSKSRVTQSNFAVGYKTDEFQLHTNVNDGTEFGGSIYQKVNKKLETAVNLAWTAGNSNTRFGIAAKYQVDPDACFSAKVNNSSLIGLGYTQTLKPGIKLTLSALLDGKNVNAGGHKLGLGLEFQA

According to article PMC3909701:

Biological target: VDAC channels (rat (endogenous in adult rat cardiomyocytes)) (UniProt Q9Z2L0)
Experiment: cross-linking

For “VDAC channels (from UniProt Q9Z2L0 1-283) (natural protein)”, the stoichiometry N was 2.
